Test results published in article PMC6116245 (Viruses, 2018).

System: CC(C)C[C@H](NC(=O)[C@H](CCCNC(=N)N)NC(=O)[C@H](Cc1ccccc1)NC(=O)c1ccc(N=Nc2ccc(N(C)C)cc2)cc1)C(=O)N[C@@H](CCC(=O)O)C(=O)N[C@@H](C)C(=O)N[C@@H](CC(=O)O)C(=O)N[C@@H](CC(=O)O)C(=O)NCC(=O)NCCNc1cccc2c(S(=O)(=O)O)cccc12
Experiment: purified protein, by the assay type
Conditions: other: 0-100 µM substrate, 1 h at 37 °C

FCV protease (recombinant FCV Pro-Pol) (Feline calicivirus (strain Urbana))
Km: 33.5 µM
